Target: T1, hOAT2A (Homo sapiens, UniProt Q9Y694)
T1 sequence (Q9Y694 1-546 isoform Q9Y694-2): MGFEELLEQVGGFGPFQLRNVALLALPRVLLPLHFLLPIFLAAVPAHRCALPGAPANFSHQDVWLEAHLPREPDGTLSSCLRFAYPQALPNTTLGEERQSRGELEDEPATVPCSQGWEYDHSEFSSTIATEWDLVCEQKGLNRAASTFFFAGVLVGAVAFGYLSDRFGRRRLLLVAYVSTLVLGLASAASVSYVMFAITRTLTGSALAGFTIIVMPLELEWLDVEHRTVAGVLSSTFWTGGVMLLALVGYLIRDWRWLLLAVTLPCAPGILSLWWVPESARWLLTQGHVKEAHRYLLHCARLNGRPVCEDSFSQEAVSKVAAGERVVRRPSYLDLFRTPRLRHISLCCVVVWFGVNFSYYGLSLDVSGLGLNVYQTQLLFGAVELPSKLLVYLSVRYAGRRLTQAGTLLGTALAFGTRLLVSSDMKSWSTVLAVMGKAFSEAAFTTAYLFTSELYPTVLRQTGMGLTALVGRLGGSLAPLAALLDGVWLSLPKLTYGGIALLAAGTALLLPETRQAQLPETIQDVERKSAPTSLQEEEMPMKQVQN
Assay: Competition assay of 3H-PAH uptake in EcR293/OAT2A cells
Format: cell-based
Design: Isolation of Full-length Human OAT2A and OAT2B cDNA; expressed in transfected cells; host or cells: EcR293 (Invitrogen)
Conditions: 500 μM competitor
Experimental: EcR293/OAT2A cells were assayed for transport of ^3H-PAH as in Example 7. […]. The competition assay thus identified BSP and not AKG as a preferred substrate of hOAT2A.

α-ketoglutarate [AKG]
effect on uptake of 3H-PAH in EcR293/OAT2A cells: not
